Assay: in vitro
Conditions: rhesus monkey, plasma

Cc1cn([C@H]2C[C@H](N=[N+]=[N-])[C@@H](CO)O2)c(=O)[nH]c1=O [ZIDOVUDINE]
fraction unbound: 0.707
